These results are taken from ChEMBL document CHEMBL3596098, “Insights into the interaction of negative allosteric modulators with the metabotropic glutamate receptor 5: discovery and computational modeling of a new series of ligands with nanomolar affinity” (Bioorg Med Chem, 2015).

By UniProt entry, the sequences of proteins in these tests, tags left out.
UniProt P41594, whole entry: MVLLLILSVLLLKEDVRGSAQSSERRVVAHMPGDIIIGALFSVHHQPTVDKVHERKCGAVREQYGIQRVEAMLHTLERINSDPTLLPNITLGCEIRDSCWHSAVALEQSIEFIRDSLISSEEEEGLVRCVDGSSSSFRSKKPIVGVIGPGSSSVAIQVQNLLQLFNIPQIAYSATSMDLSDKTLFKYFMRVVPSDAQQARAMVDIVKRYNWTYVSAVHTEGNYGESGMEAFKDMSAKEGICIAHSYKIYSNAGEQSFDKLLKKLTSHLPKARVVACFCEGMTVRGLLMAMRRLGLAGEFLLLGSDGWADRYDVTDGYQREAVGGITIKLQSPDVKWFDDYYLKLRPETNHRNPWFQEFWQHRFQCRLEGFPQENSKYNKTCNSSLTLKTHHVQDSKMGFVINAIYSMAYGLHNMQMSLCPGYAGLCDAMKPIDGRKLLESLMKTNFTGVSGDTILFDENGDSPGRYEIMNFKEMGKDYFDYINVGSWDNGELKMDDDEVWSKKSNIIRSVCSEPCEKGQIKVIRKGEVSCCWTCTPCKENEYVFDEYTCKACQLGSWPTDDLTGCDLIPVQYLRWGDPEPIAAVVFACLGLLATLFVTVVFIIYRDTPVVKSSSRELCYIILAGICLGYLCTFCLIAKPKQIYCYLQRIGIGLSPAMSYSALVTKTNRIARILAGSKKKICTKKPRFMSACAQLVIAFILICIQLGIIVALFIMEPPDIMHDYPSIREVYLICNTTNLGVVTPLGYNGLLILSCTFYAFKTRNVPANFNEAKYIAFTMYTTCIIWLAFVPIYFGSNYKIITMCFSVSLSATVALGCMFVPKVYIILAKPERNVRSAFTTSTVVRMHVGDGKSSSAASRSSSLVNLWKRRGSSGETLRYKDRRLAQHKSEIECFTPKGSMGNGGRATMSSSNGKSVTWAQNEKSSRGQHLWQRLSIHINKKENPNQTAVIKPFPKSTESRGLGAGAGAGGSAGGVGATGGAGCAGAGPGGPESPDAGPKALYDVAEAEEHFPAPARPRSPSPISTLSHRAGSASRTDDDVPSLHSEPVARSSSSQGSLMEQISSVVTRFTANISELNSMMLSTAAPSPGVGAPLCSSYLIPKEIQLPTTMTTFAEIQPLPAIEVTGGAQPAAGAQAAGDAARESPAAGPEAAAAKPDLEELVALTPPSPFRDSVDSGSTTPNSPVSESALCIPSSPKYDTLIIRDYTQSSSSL
UniProt P31424, whole entry: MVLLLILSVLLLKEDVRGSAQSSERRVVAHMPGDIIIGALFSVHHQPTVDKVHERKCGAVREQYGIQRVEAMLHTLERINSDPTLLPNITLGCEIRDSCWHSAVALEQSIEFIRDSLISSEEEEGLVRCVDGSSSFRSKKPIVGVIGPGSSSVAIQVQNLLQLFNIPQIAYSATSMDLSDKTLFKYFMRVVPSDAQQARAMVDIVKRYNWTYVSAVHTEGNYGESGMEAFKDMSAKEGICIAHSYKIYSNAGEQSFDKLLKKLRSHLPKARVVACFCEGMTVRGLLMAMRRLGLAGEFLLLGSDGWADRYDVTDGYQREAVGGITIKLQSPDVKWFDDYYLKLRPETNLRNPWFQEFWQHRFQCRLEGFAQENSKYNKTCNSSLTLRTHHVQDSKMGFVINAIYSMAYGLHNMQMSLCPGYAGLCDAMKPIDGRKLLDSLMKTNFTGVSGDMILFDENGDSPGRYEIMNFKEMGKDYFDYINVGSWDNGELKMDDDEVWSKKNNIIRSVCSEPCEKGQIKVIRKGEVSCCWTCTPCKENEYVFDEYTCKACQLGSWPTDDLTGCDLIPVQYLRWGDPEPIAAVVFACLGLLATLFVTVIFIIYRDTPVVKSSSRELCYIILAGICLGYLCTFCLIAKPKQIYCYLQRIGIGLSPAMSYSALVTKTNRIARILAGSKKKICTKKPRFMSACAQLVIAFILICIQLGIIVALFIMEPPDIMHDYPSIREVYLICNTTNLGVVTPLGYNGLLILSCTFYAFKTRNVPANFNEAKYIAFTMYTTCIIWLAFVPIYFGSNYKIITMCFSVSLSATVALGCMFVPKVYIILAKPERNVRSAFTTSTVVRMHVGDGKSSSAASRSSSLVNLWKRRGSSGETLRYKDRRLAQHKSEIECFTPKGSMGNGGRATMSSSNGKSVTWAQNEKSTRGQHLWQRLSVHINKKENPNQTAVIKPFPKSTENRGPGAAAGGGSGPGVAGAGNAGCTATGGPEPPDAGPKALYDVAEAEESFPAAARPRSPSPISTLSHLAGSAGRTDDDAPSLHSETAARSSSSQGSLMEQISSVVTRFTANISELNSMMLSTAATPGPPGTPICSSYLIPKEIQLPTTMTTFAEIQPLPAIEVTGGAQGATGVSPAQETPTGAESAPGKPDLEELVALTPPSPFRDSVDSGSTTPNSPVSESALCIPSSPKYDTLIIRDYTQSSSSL

pIC50, pKi: −log10 of the molar value.

In experiment [1] the target is T1, Metabotropic glutamate receptor 5 (Homo sapiens, UniProt P41594). As to the kind of experiment: Displacement of [3H]MPEP from human cloned mGluR5 receptor expressed in CHO-T-Rex cells after 60 mins by liquid scintillation spectrometry. Format: cell-based. An outline of the steps:
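Membranes of CHO T-REx cells stably expressing human mGlu5, with expression derepressed by 1 µg/mL tetracycline for 18 h. Cells at 50 µg/well in 20 mM HEPES, 2 mM MgCl2, 2 mM CaCl2, pH 7.4, incubated 60 min at 25 °C with 4 nM [3H]MPEP. Nonspecific binding defined with 10 µM MPEP. Filtration, then scintillation counting. Ki from IC50 by Cheng-Prusoff. Three experiments, duplicate points.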

The target in experiment [2] is T1, Metabotropic glutamate receptor 5. In words: Negative allosteric modulatory activity at human cloned mGluR5 receptor expressed in CHO-T-Rex cells assessed as inhibiton of quisqualate-induced calcium mobilization treated 10 mins prior to agonist application by fluorescence analysis. Type of experiment: functional, cell-based. Summed up: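 CHO T-REx cells expressing human mGlu5, induced 18 h with 3 ng/mL tetracycline and seeded at 80,000 cells/well. Loaded 1 h at 37 °C with 2 µM Fluo-4/AM in HBSS with 20 mM HEPES and 2.5 mM probenecid, then washed. Compound (0.5% DMSO final) added 10 min before quisqualate at its daily EC80. Peak minus basal fluorescence read every 1.5 s for 60 s.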
Background: A change in cytosolic calcium serves as a functional read-out for many receptors and channels.

The target in experiment [3] is Metabotropic glutamate receptor 5 (Rattus norvegicus, UniProt P31424). As to the kind of experiment: Displacement of [3H]MPEP from mGluR5 receptor in Sprague-Dawley rat forebrain membrane after 60 mins by liquid scintillation spectrometry. An outline of the steps:
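Rat forebrain (cortex, striatum, hippocampus) homogenized in 50 mM Tris pH 7.4, washed by centrifugation with 37 °C incubations, then frozen. Membranes resuspended in 20 mM HEPES, 2 mM MgCl2, 2 mM CaCl2, pH 7.4 and incubated 60 min at 25 °C with 4 nM [3H]MPEP. Nonspecific binding with 10 µM MPEP. Filtration, scintillation counting. Ki by Cheng-Prusoff.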

In the case of `Cc1nc(C#Cc2ccc(-c3cccnc3)nc2)cs1`, the negative-log Ki (pKi) in experiment [1] is 8.33; in experiment [3], 7.95. Also, the pIC50 in experiment [2] was 8.21.
Regarding `Cc1nc(C#Cc2cccnc2)cs1`, the values for the pKi in experiment [1] and in experiment [3] were 7.49 and 7.41, respectively. Further, the pIC50 in experiment [2] is 7.33.
In experiment [3], `Cc1cccc(C#Cc2ccccc2)n1` gave a pKi of 7.82.

Broadly, the pKi is the negative decadic logarithm of the Ki, by convention in mol/L. Read a low pKi as a high Ki. Usually pIC50 stands for the IC50 on a negative log10 scale, so that one unit is a factor of ten.
